# From ChEMBL document CHEMBL1125386, “Small atrial natriuretic peptide analogues: design, synthesis, and structural requirements for guanylate cyclase activation” (J Med Chem, 1992)
# Species on record: Oryctolagus cuniculus
# Assay: Compound was evaluated for the intrinsic vasorelaxation (i.vr) in a standard tissue bath preparation using rabbit aortic rings precontracted with histamine
# Assay type: functional, Aorta
# Outline: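 Rabbit aortic rings (4–5 mm) in Krebs-Henseleit buffer, gassed 95:5 O2/CO2, pH 7.4, isometric tension, baseline 2 g held 2 h. Rings contracted with 3 μM histamine, then six cumulative half-log peptide increments over 90 min, range 10⁻⁸ to 10⁻⁴ M. Triplicate determinations.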
structure (smiles),measurement,value
CC[C@H](C)[C@@H]1NC(=O)[C@H](CCCN=C(N)N)NC(=O)[C@H](CC(=O)O)NC(=O)[C@H]([C@@H](C)CC)NC(=O)[C@H](CCCN=C(N)N)NC(=O)CNC(=O)CNC(=O)[C@H](Cc2ccccc2)NC(=O)[C@@H](NC(=O)[C@H](CO)NC(=O)[C@H](CO)NC(=O)[C@H](CCCN=C(N)N)NC(=O)[C@H](CCCN=C(N)N)NC(=O)[C@H](CC(C)C)NC(=O)[C@@H](N)CO)CSSC[C@@H](C(=O)N[C@@H](CC(N)=O)C(=O)N[C@@H](CO)C(=O)N[C@@H](Cc2ccccc2)C(=O)N[C@@H](CCCN=C(N)N)C(=O)N[C@@H](Cc2ccc(O)cc2)C(=O)O)NC(=O)CNC(=O)[C@H](CC(C)C)NC(=O)CNC(=O)[C@H](CO)NC(=O)[C@H](CCC(N)=O)NC(=O)[C@H](C)NC(=O)CNC1=O,Intrinsic vasorelaxation,1 fraction of rANP max
